One compound from patent publication US20250325677A1, “STAT6 DEGRADERS” (Gilead Sciences, Inc., priority 2024, published 2025) can be followed below.

Chains of the proteins cited; added tags and fusions are not shown.
UniProt P42226, whole entry: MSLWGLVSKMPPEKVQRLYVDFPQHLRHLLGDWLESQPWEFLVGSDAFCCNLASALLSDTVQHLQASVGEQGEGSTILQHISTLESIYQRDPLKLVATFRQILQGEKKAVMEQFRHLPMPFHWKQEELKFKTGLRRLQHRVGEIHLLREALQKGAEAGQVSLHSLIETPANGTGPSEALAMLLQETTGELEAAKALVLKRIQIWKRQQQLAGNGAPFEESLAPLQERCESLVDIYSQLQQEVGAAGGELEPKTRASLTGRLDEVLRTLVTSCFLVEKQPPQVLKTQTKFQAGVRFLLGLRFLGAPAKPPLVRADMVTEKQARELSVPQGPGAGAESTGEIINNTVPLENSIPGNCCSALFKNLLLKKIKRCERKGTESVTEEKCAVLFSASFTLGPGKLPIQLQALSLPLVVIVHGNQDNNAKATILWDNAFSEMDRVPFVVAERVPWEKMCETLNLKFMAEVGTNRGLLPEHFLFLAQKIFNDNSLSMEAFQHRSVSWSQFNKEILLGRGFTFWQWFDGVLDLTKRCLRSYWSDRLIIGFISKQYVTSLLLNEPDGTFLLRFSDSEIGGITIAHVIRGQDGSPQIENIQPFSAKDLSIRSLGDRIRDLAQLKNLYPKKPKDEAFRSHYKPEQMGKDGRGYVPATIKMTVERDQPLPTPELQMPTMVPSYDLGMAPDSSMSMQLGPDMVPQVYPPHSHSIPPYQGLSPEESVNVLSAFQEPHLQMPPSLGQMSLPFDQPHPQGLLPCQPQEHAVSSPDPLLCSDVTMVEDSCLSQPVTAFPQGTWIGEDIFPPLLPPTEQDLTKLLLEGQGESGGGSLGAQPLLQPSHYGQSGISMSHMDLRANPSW

For the assay, the target named is STAT6 (Homo sapiens (Human), UniProt P42226). The assay is described as follows: STAT6 degrader assay (HiBiT, HeLa LgBiT clone 4.14). It is filed as cell-based. The following applies: read-out: STAT6 degradation DC50; HeLa LgBiT clone 4.14, 4-24 h; geometric mean; given for compounds with >80% Emax. As to the method: This was a HiBit based assay. A HeLa cell line stably transfected with a small protein, LgBit (Large Bit) was obtained from Promega. These cells express endogenous STAT6. A small 11 amino acid gene sequence (HiBiT) was inserted in the STAT6 gene using CRISPR technology. Once STAT6 protein is expressed in the cells, the HiBiT sequence will bind the LgBit in the cells resulting in a functional NanoBiT protein, giving a luminescent tag to STAT6, see FIG. 2.
Single cell clones were prepared and the clone 4.14 was selected for the assay based on that clone showing high luminescence, high STAT6 phosphorylation upon stimulation with IL-4, and inhibition of luminescence when cells were treated with STAT6 siRNA.
HeLa LgBiT clone 4.14 cells were suspended in DMEM with 10% FCS, 1% Pen/Strep, Na-pyrovate and Hygromycin B, at a concentration of 1.25*105 cells pr mL. 5000 cells were added pr well of a 384 well plate and 20 nL of compound was added by Echo® liquid handler. NN6394A (terfenadine, a toxic compound) was added to control wells at 50 μM concentration to establish the assay window. In these wells the cells are dead which equals 100% degradation of STAT6. […]
The luminescence in the wells as a measure of non-degraded STAT6 was measured in a plate reader (BMG Pherastar FSX). The measured DC50 (in nM) was determined. […]

As for `COCCn1c(=O)n(C2CCC(=O)NC2=O)c2ccc(CN3CCN(CC4CCN(C(=O)c5ccc(C6CCN(Cc7cc8c(-c9ccc%10[nH]ncc%10c9)ccnc8n7C)CC6)cc5)CC4)CC3)cc21` (stereo not shown), the DC50 turned out to be 1.5 nM.
